Laboratory results from ChEMBL document CHEMBL4265983, “Discovery and biological evaluation of thiobarbituric derivatives as potent p300/CBP inhibitors” (Bioorg Med Chem, 2018).

Tests used:
Type in all cases: functional, cell-based
[1] = test system: CCRF-CEM; assay: Antiproliferative activity against human CEM cells after 72 hrs by CellTiter-Glo assay
[2] = test system: MOLT-3; assay: Antiproliferative activity against human MOLT3 cells after 72 hrs by CellTiter-Glo assay
[3] = test system: Jurkat; assay: Antiproliferative activity against human Jurkat cells after 72 hrs by CellTiter-Glo assay
[4] = test system: MOLT-4; assay: Antiproliferative activity against human MOLT4 cells after 72 hrs by CellTiter-Glo assay
[5] = test system: Kasumi 1; assay: Antiproliferative activity against human Kasumi-1 cells after 72 hrs by CellTiter-Glo assay
[6] = test system: MV4-11; assay: Antiproliferative activity against human MV4-11 cells after 72 hrs by CellTiter-Glo assay
[7] = test system: THP-1; assay: Antiproliferative activity against human THP1 cells after 72 hrs by CellTiter-Glo assay
[8] = test system: RS4-11; assay: Antiproliferative activity against human RS4:11 cells after 72 hrs by CellTiter-Glo assay
[9] = test system: KOPN-8; assay: Antiproliferative activity against human KOPN8 cells after 72 hrs by CellTiter-Glo assay
[10] = test system: K562; assay: Antiproliferative activity against human K562 cells after 72 hrs by CellTiter-Glo assay

Measured: Activity

Cc1ccc(N2C(=O)/C(=C\C=C\c3ccco3)C(=O)NC2=S)cc1Cl
active: [1] Dose-dependent effect | [2] Dose-dependent effect | [3] Dose-dependent effect | [4] Dose-dependent effect | [5] Dose-dependent effect | [6] Dose-dependent effect | [7] Dose-dependent effect | [8] Dose-dependent effect | [9] Dose-dependent effect | [10] Dose-dependent effect
